Amino acid sequences for entries named in this document (tags omitted).
UniProt P08908, whole entry: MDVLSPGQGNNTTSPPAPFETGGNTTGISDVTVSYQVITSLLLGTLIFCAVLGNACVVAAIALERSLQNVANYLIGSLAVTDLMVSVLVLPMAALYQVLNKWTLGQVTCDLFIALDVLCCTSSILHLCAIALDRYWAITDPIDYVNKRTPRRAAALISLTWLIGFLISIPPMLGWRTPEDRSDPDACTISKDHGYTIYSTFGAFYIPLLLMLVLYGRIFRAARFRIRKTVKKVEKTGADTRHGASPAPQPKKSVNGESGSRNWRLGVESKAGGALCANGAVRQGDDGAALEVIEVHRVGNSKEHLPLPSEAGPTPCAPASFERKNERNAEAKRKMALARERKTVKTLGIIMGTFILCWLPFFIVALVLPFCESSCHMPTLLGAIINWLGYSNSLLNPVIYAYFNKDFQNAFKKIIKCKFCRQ

According to ChEMBL document CHEMBL1155229, “Physical binding pocket induction for affinity prediction” (J Med Chem, 2009):

Target: 5-hydroxytryptamine receptor 1A (Homo sapiens, UniProt P08908)
Assay: Binding affinity to 5HT1A receptor

CNS(=O)(=O)Cc1ccc2[nH]cc(CCN(C)C)c2c1
Kd: 398 nM

COC(=O)[C@H]1[C@H]2C[C@H]3c4[nH]c5ccccc5c4CCN3C[C@H]2CC[C@@H]1O [RAUWOLSCINE]
Kd: 39.8 nM
